## Measured affinities in a library of Ab-14 heavy chain variants

Reference: Li et al. 2023, doi:10.1038/s41467-023-39022-2. File: FLAb, binding data.

All variants were tested on one target, the spike HR2 peptide PDVDLGDISGINAS (SARS-CoV-2).

Each scFv is VH, three GGGGS repeats, VL, as in the parent Ab-14, and differs from it in the CDRs of the heavy chain only.
VH: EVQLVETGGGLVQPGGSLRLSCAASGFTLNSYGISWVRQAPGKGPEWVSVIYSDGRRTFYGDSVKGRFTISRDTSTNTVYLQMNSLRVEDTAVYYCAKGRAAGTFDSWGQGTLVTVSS
VL: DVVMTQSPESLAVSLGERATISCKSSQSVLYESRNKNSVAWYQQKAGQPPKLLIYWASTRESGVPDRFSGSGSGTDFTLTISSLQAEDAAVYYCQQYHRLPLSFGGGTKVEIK

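Phage display of a naive human antibody library on the peptide gave the parent. Designed CDR sequences, proposed from the first random library and measured here. Their group label is 14H_En_Gen (En: ensemble of fine-tuned language models; Gen: genetic algorithm). Affinity was read by AlphaSeq, a pooled yeast mating assay with surface-displayed partners. The frequency of each diploid, read from paired DNA barcodes, reflects how well the two displayed proteins bind. Read counts were normalised to the haploid input and turned into Kd by a linear fit to BCL2-family pairs of known affinity, for each replicate. Mating was done six times.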

Variants are written as CDR1, CDR2 and CDR3 of the heavy chain (limits as in the source). Parent: GFTLNSYGIS, VIYSDGRRTFYGDSVK, GRAAGTFDS. Scale: log10 of Kd in nM, estimated from mating counts; low values are strong binders. A pair that was not seen in that replicate is written "n.d."; this usually means weak binding, but a binder can also be missed. The authors averaged sequences with at least three values out of six and counted those with two or fewer as poor binders. Of ten entries with the parent sequence, four were seen in most replicates (averages 0.34 to 2.37), three in one and three in none, so single entries are noisy. Three control strains display no target. For all heavy chain designs, 1% of the pairings with them gave a signal, with a median of 2.08 and one signal in twenty below 0.84, so weak values seen in few replicates may be background. The control count says in how many pairings with the empty strains this scFv gave a signal, with their mean in brackets. The range of this assay differs from that of the first round, and the authors advise against merging the two.

| CDR-H1 | CDR-H2 | CDR-H3 | log10 Kd, replicates | empty controls |
|---|---|---|---|---|
| GFDLDEYGIS | VIYADGSRTAYSDSVK | GNQAGTFDV | 1.41 / 0.73 / 1.28 / 1.63 / 1.01 / 0.62 | 0/18 |
| GFDLDEYGIS | VIYADGSRTAYADSVK | GQVAGTFDV | -0.82 / -1.14 / -0.67 / 0.05 / -1.27 / -0.04 | 0/18 |
| GFDLNEYGIS | VIYADGMRSVYADSVK | GNVAGTFDV | -0.34 / -0.65 / -0.21 / -0.25 / -0.05 / -0.34 | 0/18 |
| GFDLEDYGIS | VIYADGMRTAYTDSVK | GEVAGTFDL | -1.60 / -1.92 / -2.04 / n.d. / -0.78 / n.d. | 0/18 |
| GFDLNEYGIS | VIYADGMRTSYADSVK | GENAGTFDV | 0.37 / 1.06 / 0.01 / -0.51 / -0.11 / 0.68 | 0/18 |
| GFDLNEYGIS | VIYADGVRKAYADSVK | GETAGTFDV | -0.40 / -0.51 / -0.56 / -0.48 / -0.72 / -0.41 | 0/18 |
| GFDLDEYGIS | VIYADGLRTAYADSVK | GENAGTFDV | -0.18 / -0.23 / -0.22 / -0.12 / -0.20 / -0.16 | 0/18 |
| GFDLNEYGIS | VIYADGVRTAYADDVK | GQVAGTFDV | -0.68 / -0.54 / -0.73 / -0.66 / -0.49 / -0.40 | 0/18 |
| GFDLDEYGIS | VIYADGKRTAYSDSVK | GNTAGTFDQ | -0.32 / -0.08 / -0.65 / -0.29 / -0.43 / -0.14 | 0/18 |
| GFDLDEYGIS | VIYADGVRTAYTDSVK | GEVAGTFDV | -0.22 / -0.45 / -0.41 / -0.41 / -0.60 / -0.33 | 0/18 |
| GFDLNEYGIS | VIYADGMRTFYSDSVK | GNVAGTFDL | -0.15 / -0.32 / -0.29 / -0.35 / -0.40 / -0.11 | 0/18 |
| GFDLDEYGIS | VIYADGKRTFYADSVK | GENAGTFDV | 0.12 / -0.29 / -0.43 / -0.54 / -0.31 / -0.11 | 0/18 |
| GFDLDEYGIS | VIYADGMRTSYADSVK | GEVAGTFDL | 0.08 / 0.01 / 0.08 / -0.28 / -0.29 / -0.09 | 1/18 (1.50) |
| GFDLDEYGIS | VIYADGMRKAYADSVK | GNNAGTFDV | -0.44 / -0.45 / -0.67 / -0.54 / -0.53 / -0.67 | 1/18 (0.75) |
| GFDLNEYGIS | VIYADGRRTAYVDSVK | GNQAGTFDV | -0.61 / -0.88 / -0.96 / -1.28 / -0.88 / -0.63 | 1/18 (1.24) |
| GFDLNEYGIS | VIYADGKRTAYADSVK | GNVAGTFDF | -0.63 / -0.66 / -0.64 / -0.82 / -0.75 / -0.70 | 1/18 (2.12) |
| GFDLNEYGIS | VIYADGMRTAYVDSVK | GTNAGTFDI | -0.59 / -0.46 / -0.75 / -0.79 / -0.51 / -0.31 | 0/18 |
| GFDLNEYGIS | VIYADGMRTAYTDSVK | GTNAGTFDM | -0.67 / -0.47 / -0.15 / -0.80 / -0.82 / -0.35 | 0/18 |
| GFDLNEYGIS | VIYADGRRTAYADSVK | GEVAGTFDT | 0.87 / 0.58 / 0.13 / -0.35 / 0.00 / -0.25 | 1/18 (1.13) |
| GFDLNEYGIS | VIYADGVRTAYADKVK | GNVAGTFDT | -0.32 / -0.06 / -0.07 / -0.39 / -0.31 / -0.63 | 1/18 (2.10) |
| GFDLNEYGIS | VIYADGRRTAYIDSVK | GNVAGTFDQ | 0.18 / -0.52 / -0.61 / -0.52 / -0.48 / -0.56 | 0/18 |
| GFDLEEYGIS | VIYADGRRTAYADSVK | GENAGTFDV | 0.38 / 0.05 / -0.47 / 0.05 / 0.24 / -0.10 | 0/18 |
| GFDLNEYGIS | VIYADGKRTMYADSVK | GENAGTFDV | 0.41 / 0.52 / 0.50 / -0.25 / -0.48 / -0.24 | 0/18 |
| GFDLNEYGIS | VIYADGQRTVYADSVK | GNQAGTFDV | -0.29 / -0.04 / -0.83 / -1.05 / -0.85 / -0.69 | 0/18 |
| GFDLNEYGIS | VIYADGVRTAYADDVK | GNVAGTFDI | -0.34 / -0.20 / -0.60 / -0.70 / -0.39 / -0.38 | 0/18 |
| GFDLNEYGIS | VIYADGMRTAYANDVK | GNNAGTFDV | -0.71 / -0.64 / -0.71 / -0.93 / -0.74 / -0.58 | 0/18 |
| GFDLDEYGIS | VIYADGSRTAYADSVK | GNVAGTFDQ | 0.06 / 0.17 / -0.01 / -0.51 / -0.54 / -0.19 | 0/18 |
| GFDLNEYGIS | VIYADGMRTAYADSVK | GNEAGTFDI | 0.54 / 0.38 / 0.79 / 0.58 / 1.38 / 0.80 | 1/18 (1.56) |
| GFDLNEYGIS | VIYADGRRTAYADDVK | GENAGTFDI | 0.64 / 0.38 / 0.83 / 0.56 / 0.31 / 0.46 | 0/18 |
| GFDLNEYGIS | VIYADGQRTFYADSVK | GEVAGTFDT | 0.35 / 0.16 / -0.15 / -0.34 / -0.21 / -0.12 | 1/18 (2.02) |
| GFDLNEYGIS | VIYADGMRTAYTDSVK | GANAGTFDI | -0.64 / -0.41 / -0.72 / -0.71 / -0.58 / -0.48 | 1/18 (2.01) |
| GFDLNEYGIS | VIYADGMRTAYADSVK | GAVAGTFDV | -0.04 / 0.16 / -0.07 / -0.06 / -0.02 / 0.34 | 0/18 |
| GFDLDEYGIS | VIYADGQRTAYSDSVK | GNQAGTFDI | -0.05 / -0.35 / -0.41 / -0.63 / -0.52 / -0.20 | 0/18 |
| GFDLDEYGIS | VIYADGKRTAYIDSVK | GNVAGTFDQ | -0.11 / 0.05 / -0.43 / -0.32 / -1.09 / 0.19 | 0/18 |
| GFDLDEYGIS | VIYADGKRTAYTDSVK | GETAGTFDV | -0.81 / -1.06 / -0.88 / -1.12 / -0.64 / -0.71 | 0/18 |
| GFDLDEYGIS | VIYADGMRKAYADSVK | GEVAGTFDL | -0.05 / -0.50 / -0.52 / -0.65 / -0.62 / -0.23 | 0/18 |
| GFDLNEYGIS | VIYADGMRTAYADSVK | GESAGTFDV | -0.18 / -0.37 / -0.21 / -0.40 / -0.12 / 0.10 | 2/18 (3.21) |
| GFDLNEYGIS | VIYADGKRTFYTDSVK | GENAGTFDV | -0.51 / 0.25 / -1.34 / -1.15 / -0.39 / -0.99 | 0/18 |
| GFDLNEYGIS | VIYADGVRKVYADSVK | GNVAGTFDV | -0.41 / -1.20 / -1.18 / -1.40 / -1.11 / -0.82 | 0/18 |
| GFDLNEYGIS | VIYADGVRTAYSDSVK | GQTAGTFDV | -0.63 / -0.79 / -0.64 / -1.03 / -0.76 / -0.60 | 0/18 |
| GFDLNEYGIS | VIYADGVRTAYSDSVK | GNNAGTFDI | -0.27 / 0.14 / -0.33 / -0.23 / -0.11 / -0.68 | 0/18 |
| GFDLEDYGIS | VIYADGMRTAYADSVK | GETAGTFDV | -0.16 / -0.30 / -0.11 / 0.12 / -0.13 / -0.09 | 0/18 |
| GFDLNEYGIS | VIYADGRRTAYADSVK | GNVAGTFDQ | 0.21 / 0.25 / -0.01 / 0.27 / 0.49 / 0.06 | 2/18 (1.72) |
| GFDLNEYGIS | VIYADGVRTAYADNVK | GETAGTFDI | 0.57 / 1.04 / 0.28 / 0.34 / 0.73 / 0.61 | 2/18 (2.81) |
| GFDLNEYGIS | VIYADGMRTAYADDVK | GEVAGTFDQ | 0.05 / -0.49 / -0.49 / -0.70 / -0.02 / -0.24 | 0/18 |
| GFDLNEYGIS | VIYADGSRTAYVDSVK | GNQAGTFDV | n.d. / -1.86 / n.d. / -1.07 / -1.39 / n.d. | 0/18 |
| GFDLDEYGIS | VIYADGQRTAYSDSVK | GNNAGTFDI | -0.13 / 0.10 / -0.30 / -0.40 / -0.32 / -0.10 | 1/18 (3.39) |
| GFDLNEYGIS | VIYADGKRTAYSDSVK | GTNAGTFDI | -1.08 / -1.78 / -2.07 / 0.11 / -0.32 / n.d. | 0/18 |
| GFSLDEYGIS | VIYADGMRTAYADSVK | GNVAGTFDL | -0.55 / -0.70 / -0.63 / -0.67 / -0.71 / -0.35 | 0/18 |

The first 3 entries again:

| CDR-H1 | CDR-H2 | CDR-H3 | log10 Kd, replicates | empty controls |
|---|---|---|---|---|
| GFDLDEYGIS | VIYADGSRTAYSDSVK | GNQAGTFDV | 1.41 / 0.73 / 1.28 / 1.63 / 1.01 / 0.62 | 0/18 |
| GFDLDEYGIS | VIYADGSRTAYADSVK | GQVAGTFDV | -0.82 / -1.14 / -0.67 / 0.05 / -1.27 / -0.04 | 0/18 |
| GFDLNEYGIS | VIYADGMRSVYADSVK | GNVAGTFDV | -0.34 / -0.65 / -0.21 / -0.25 / -0.05 / -0.34 | 0/18 |